Among the data in patent US20240425837A1 (Novo Nordisk, published 2024) are KM of FX activation by free FIXa (10 nM) with phospholipid vesicles, no compound values, retold here.

The data set deals with human plasma-derived coagulation Factor X (FX).

As to “human plasma-derived coagulation Factor IXa (FIXa)”, the KM of FX activation by free FIXa (10 nM) with phospholipid vesicles, no compound stood at 0.282 µM.
